Results reported in ChEMBL document CHEMBL1275523 (Antimicrob Agents Chemother, 2008).

Columns and labels:
Sialidase-4 [1] = target: T1, Sialidase-4 (Homo sapiens, UniProt Q8WWR8); assay: Inhibition of human NEU4 expressed in HEK293 cells by fluorometric high-performance liquid chromatography using 4MU-NeuAc substrate; assay type: cell-based
T1 sequence (Q8WWR8 whole entry): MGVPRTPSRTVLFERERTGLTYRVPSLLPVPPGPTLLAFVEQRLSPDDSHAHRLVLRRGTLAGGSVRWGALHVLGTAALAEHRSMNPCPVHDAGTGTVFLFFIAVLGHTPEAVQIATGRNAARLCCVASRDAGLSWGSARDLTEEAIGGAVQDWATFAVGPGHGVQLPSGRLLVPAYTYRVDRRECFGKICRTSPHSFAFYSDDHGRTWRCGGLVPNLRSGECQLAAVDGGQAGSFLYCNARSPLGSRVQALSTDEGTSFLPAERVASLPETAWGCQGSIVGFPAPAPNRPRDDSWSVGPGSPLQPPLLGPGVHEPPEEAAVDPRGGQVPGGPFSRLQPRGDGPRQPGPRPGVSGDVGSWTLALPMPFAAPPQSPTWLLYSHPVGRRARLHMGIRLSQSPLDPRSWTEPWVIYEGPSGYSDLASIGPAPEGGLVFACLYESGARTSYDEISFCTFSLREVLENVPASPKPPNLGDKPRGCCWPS

Sialidase-4 [2] = target: T1, Sialidase-4; assay: Inhibition of human NEU4 expressed in HEK293 cells by fluorometric high-performance liquid chromatography using ganglioside GM3 substrate; assay type: cell-based

SMILES	IC50 (Sialidase-4 [1])	IC50 (Sialidase-4 [2])
CC(=O)N[C@H]1[C@H]([C@H](O)[C@H](O)CO)OC(C(=O)O)=C[C@@H]1O [NEU5AC2EN]	73.1 µM	–
CC(=O)N[C@H]1[C@H]([C@H](O)[C@H](O)CO)OC(C(=O)O)=C[C@@H]1N=C(N)N [ZANAMIVIR]	487 µM	690 µM
